This test has as its target hTRPV3 (Homo sapiens (Human), UniProt Q8NET8). The experiment in a line: Whole-cell patch clamp, hTRPV3 Phase 1 / Phase 2 currents. The format is cell-based. An excerpt:
Whole-cell patch clamp experiments permit the detection of currents through the TRPV3 channel in the cell line described above. A glass electrode is brought into contact with a single cell and the membrane is then ruptured, permitting control of the voltage of the cell membrane and measurement of currents flowing across the membrane using the amplifier attached to the electrode. A perfusion system permits control of the extracellular solution, including the addition of blockers and activators of the current. The current can be activated by heating this solution to 28° C. or warmer or by addition of 20 μM 2-APB to the solution.
TRPV3 cells were induced 20-48 hours, removed from growth plates, and replated at low density (to attain good single-cell physical separation) on glass coverslips for measurement. In some cases, cells were grown in low density overnight on glass coverslips. Patch clamp recordings were made in the whole-cell mode with a holding potential of −40 mV. Every 5 seconds, a voltage ramp was applied from −120 to +100 mV, 400 ms in duration. Currents elicited were quantified at −80 mV and +80 mV. […] External solution was Ringer's solution described above.
P1 refers to the Phase 1 current for human (h) TRPV3, and P2 refers to the Phase 2 current for human (h) TRPV3. […]
(In general: The patch-clamp technique gives a direct electrical read-out from membranes.)

By UniProt entry, the sequences of proteins in these tests, tags left out. Where a name states a change or a piece, a line headed by the entry shows the natural chain unless it says otherwise.
UniProt Q8NET8: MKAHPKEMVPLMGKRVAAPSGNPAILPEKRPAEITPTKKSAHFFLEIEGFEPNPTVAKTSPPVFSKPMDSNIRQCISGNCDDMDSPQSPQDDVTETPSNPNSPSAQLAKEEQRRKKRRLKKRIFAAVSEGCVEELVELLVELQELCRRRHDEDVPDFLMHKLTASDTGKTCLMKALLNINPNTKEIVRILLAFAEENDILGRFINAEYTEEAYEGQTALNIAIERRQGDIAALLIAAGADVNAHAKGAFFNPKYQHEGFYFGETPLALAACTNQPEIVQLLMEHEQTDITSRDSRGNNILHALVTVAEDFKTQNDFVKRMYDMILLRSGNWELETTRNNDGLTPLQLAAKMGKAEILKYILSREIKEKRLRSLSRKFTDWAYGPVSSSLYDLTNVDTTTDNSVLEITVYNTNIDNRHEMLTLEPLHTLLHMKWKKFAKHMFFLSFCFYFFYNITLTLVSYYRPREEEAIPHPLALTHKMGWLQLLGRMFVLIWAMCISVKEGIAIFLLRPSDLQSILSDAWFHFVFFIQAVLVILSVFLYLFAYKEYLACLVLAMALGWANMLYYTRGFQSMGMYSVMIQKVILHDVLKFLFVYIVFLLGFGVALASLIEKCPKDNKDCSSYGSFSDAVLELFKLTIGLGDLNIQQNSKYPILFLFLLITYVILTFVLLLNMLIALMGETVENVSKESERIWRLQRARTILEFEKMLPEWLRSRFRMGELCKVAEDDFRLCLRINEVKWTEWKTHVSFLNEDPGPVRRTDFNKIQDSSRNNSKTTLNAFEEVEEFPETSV

Read-outs that look alike come from different tables or passages of the source.

Consider `CN(C)C(=O)c1ccccc1N1CC[C@H](Oc2ccc(C(F)(F)F)cn2)C1` [Compound 1-48, (S)—N,N-dimethyl-2-(3-(5-(trifluoromethyl)pyridin-2-yloxy)pyrrolidin-1-yl)benzamide], for which the IC50 (Phase 1 current, inward, whole-cell patch clamp, read-out: hTRPV3 Patch P1 Inwd) was > 1000 nM.

Turning to `CN(C)C(=O)c1ccccc1N1CC[C@@H](Oc2ccc(C(F)(F)F)cn2)C1` [Compound 1-59, (R)—N,N-dimethyl-2-(3-(5-(trifluoromethyl)pyridin-2-yloxy)pyrrolidin-1-yl)benzamide], for the setting “hTRPV3 Patch P1 Inwd (nM)”, the IC50 is > 1000 nM.

The values are drawn from patent US12435061B2 (priority 2020, dated 2025).
